Biological target: T1, BRD4 (BD2) (Homo sapiens, UniProt O60885)
T1 construct: BRD4 (BD2) should be thawed on ice; purchased
Experiment: BRD4 inhibitory activity assay (AlphaLISA Bromodomain Assay);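 also: in vitro inhibition of recombinant BRD4 BD2 bromodomain binding to a BET bromodomain ligand, read by AlphaLISA proximity signal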
Type: binding
Settings: BRD4 Lab Report

## CC[C@@H]1C(=O)N(C)c2cnc(Nc3ccc(C(=O)N[C@H]4CC[C@H](N5CCN(CC6CC6)CC5)CC4)cc3OC)nc2N1C(C)C [Volasertib, reference compound]
Conc 0.01 (unit not given)
  %inh: 43%
Conc 0.1 (unit not given)
  %inh: 62%
Conc 1 (unit not given)
  %inh: 77%
Conc 10 (unit not given)
  %inh: 91%
Conc 100 (unit not given)
  %inh: 96%

Source: paper PMC10535864, “Novel Aminopyrimidine-2,4-diones, 2-Thiopyrimidine-4-ones, and 6-Arylpteridines as Dual-Target Inhibitors of BRD4/PLK1: Design, Synthesis, Cytotoxicity, and Computational Studies” (Pharmaceuticals, 2023)
